The chains behind the UniProt entries cited, without tags or fusion partners.
UniProt O75164, whole entry: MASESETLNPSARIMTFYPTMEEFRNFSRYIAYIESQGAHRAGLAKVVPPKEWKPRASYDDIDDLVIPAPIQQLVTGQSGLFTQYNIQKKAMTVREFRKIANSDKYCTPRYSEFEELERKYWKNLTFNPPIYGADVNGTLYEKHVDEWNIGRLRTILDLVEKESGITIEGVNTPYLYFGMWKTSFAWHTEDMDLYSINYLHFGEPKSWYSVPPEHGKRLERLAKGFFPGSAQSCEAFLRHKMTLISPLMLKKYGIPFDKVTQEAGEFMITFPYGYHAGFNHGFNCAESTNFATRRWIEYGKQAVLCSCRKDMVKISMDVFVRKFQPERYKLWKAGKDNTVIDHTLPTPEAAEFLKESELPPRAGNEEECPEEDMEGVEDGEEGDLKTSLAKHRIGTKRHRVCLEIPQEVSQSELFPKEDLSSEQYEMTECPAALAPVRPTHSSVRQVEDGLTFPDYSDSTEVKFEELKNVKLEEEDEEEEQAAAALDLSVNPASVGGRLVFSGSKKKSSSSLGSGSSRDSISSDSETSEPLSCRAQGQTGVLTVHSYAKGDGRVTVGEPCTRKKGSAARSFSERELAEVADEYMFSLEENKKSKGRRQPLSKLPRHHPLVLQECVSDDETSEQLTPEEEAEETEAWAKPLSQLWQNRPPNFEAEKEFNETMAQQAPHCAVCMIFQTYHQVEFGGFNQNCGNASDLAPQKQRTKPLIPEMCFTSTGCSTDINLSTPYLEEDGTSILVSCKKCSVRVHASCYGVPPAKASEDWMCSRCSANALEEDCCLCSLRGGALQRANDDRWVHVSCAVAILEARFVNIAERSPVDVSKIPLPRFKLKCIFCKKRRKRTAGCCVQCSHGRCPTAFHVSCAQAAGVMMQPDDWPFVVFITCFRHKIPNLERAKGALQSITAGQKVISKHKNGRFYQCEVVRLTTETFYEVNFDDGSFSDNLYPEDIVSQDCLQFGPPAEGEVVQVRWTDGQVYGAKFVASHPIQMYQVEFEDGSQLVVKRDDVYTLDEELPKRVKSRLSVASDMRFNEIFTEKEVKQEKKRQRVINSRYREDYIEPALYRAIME

One assay concerns the target KDM4A (Homo sapiens, UniProt O75164). The experiment in a line: FDH-coupled demethylase assay, KDM4A. The assay is classed as biochemical. Conditions: Table S2; means of three independent dose-response curves.
Broadly, the IC50 is the midpoint of a concentration-inhibition curve. Consider `O=C(c1cccc(O)c1O)N1CCN(c2ccc(Cl)c(Cl)c2)CC1`, for which the IC50 came out at 4330 nM.
Same read-out and setting: under `O=C(c1cccc(O)c1O)N1CCN(c2ccc(Cl)cc2)CC1` stands 5780 nM.
Still for that read-out and setting: for `O=C(c1ccc(O)c(O)c1)N1CCN(c2cccc(Cl)c2)CC1` the value was 5600 nM.
Still for that read-out and setting: for `O=C(c1ccc(O)c(O)c1O)N1CCN(c2cccc(Cl)c2)CC1` the value was 5030 nM.
Molecule `O=C(c1cc(O)c(O)c(O)c1)N1CCN(c2cccc(Cl)c2)CC1` had a concentration for half-maximal inhibition (IC50) of 2210 nM.
Molecule `COc1cccc(C(=O)N2CCN(c3ccc(Cl)cc3)CC2)c1O` displayed an IC50 of more than 10000 nM.
Same read-out and setting: for `O=C(c1cccc(O)c1O)N1CCN(c2cccc(Cl)c2)CC1` the value was 4480 nM.
As to `O=C(c1cccc(O)c1O)N1CCN(c2ccccc2)CC1`, the half-inhibitory concentration (IC50) stood at 4270 nM.
Same read-out and setting: under `O=C(O)c1cc(C(=O)N2CCN(c3cccc(Cl)c3)CC2)ccc1O` stands more than 10000 nM.
The same measure, in the same setting: under `Cc1cccc(N2CCN(C(=O)c3cccc(O)c3O)CC2)c1C` stands 6700 nM; under `O=C(c1cccc(O)c1O)N1CCN(c2cccc(C(F)(F)F)c2)CC1`, 8710 nM.

The same assay, now with this note: Table S3; means of three independent dose-response curves.
The molecule `O=C(N/N=C/c1cccc(O)c1O)c1cccs1` displayed an IC50 of 1900 nM. That is a single-digit micromolar value.
On the same count and under the same terms, for `O=C(N/N=C/c1ccc(O)c(O)c1)c1ccncc1` the value was 1270 nM; for `O=C(N/N=C/c1cccc(O)c1O)c1ccccn1`, 1490 nM.
On the same count and under the same terms, for `O=C(N/N=C/c1cccc(O)c1O)c1ccncc1` the value was 860 nM; for `O=C(N/N=C/c1ccc(O)c(O)c1O)c1ccncc1`, 2160 nM.
On the same count and under the same terms, for `O=C(N/N=C/c1ccc(O)c(O)c1O)c1ccccc1` the value was 1260 nM; for `O=C(N/N=C/c1ccc(O)c(O)c1O)c1ccccn1`, 1120 nM.

The same assay, now with this note: Table S4; means of three independent dose-response curves.
`O=Cc1cccc(O)c1O` came in with an IC50 of 2790 nM.
Molecule `O=C/C=C/c1ccc(O)c(O)c1` displayed an IC50 of 920 nM.

(Values after PMC9082844 (Journal of Biomedical Science, 2022).)
